This assay in a line: Hydrogen peroxide production by UV-irradiated antibody/protein (Amplex Red assay). The settings on record: UV irradiation in PBS. It counts as biochemical. The protocol: Antibody/Protein Irradiation. Unless otherwise stated, the assay solution (100 μl, 6.7 μM protein in PBS, pH 7.4) was added to a glass vial, sealed with a screw-cap, and irradiated with either UV (312 nm, […] Fischer-Biotech transilluminator) or visible light.
Quantitative Assay for Hydrogen Peroxide. An aliquot (20 μl) from the protein solution was removed and added into a well of a 96-well microtiter plate (Costar) containing reaction buffer (80 μl). Working solution (100 μl/400 μM Amplex Red reagent ½ units/ml horseradish peroxidase) was then added, and the plate was incubated in the dark for 30 min. The fluorescence of the well components was then measured using a CytoFluor Multiwell Plate Reader (Series 4000, PerSeptive Biosystems, Framingham, Mass.; Ex/Em: 530/580 nm). The hydrogen peroxide concentration was determined using a standard curve. All experiments were run in duplicate, and the rate is quoted as the mean of at least two measurements.
Denaturation. IgG 19G12 (100 μl, 6.7 μM) was heated to 100EC in an Eppendorf tube for 2 min. The resultant solution was transferred to a glass, screw-cap vial and irradiated with UV light for 30 min. The concentration of H2O2 was determined after 30 min.

With “β2-microglobulin: member of the immunoglobulin superfamily”, the “ability to reduce ^1O2 / generate H2O2 (in words)” value is on record as “does not generate H2O2”. The “ability to reduce ^1O2 / generate H2O2 (in words)” value (listed as Human β2-microglobulin) is recorded as “does not generate H2O2”. Besides, the “ability to reduce ^1O2 / generate H2O2 (in words)” value (listed as β2-macroglobulin) is given as “does not generate hydrogen peroxide”.

(Values after patent US20040157280A1, “Antibody mediated ozone generation” (priority 2001, published 2004).)
